Apparent affinities of Ab-14 variants for a coronavirus HR2 peptide

Target peptide (SARS-CoV-2 spike, HR2 region): PDVDLGDISGINAS

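The parent was found by panning a naive human phage display library on the peptide. Designed CDR sequences, proposed from the first random library and measured here. Group labels follow the data file (Ctrl: baseline library sampled from a position-specific scoring matrix, with some repeated check sequences; Rand: our label for a block that the file lists under HC and that is probably the random mutants of the ten best first-round binders; GP: Gaussian process model; HC: hill climbing; Gen: genetic algorithm; Gibbs: Gibbs sampling; a sequence that several methods proposed may carry one label only). The assay is AlphaSeq: two haploid yeast populations carry antibody and antigen on their surface. The frequency of each diploid, read from paired DNA barcodes, reflects how well the two displayed proteins bind. Scores were corrected for input abundance and mapped to Kd with protein pairs of known affinity run in the same pool. Each pool was mated in six replicate cultures.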

Ab-14 is the parent antibody, in scFv form: VH, then the linker GGGGSGGGGSGGGGS, then VL. The heavy chain is unchanged in all variants.
VH: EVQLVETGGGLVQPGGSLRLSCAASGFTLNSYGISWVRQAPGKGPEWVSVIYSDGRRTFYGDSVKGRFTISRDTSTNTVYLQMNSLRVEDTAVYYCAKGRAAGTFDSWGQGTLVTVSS
VL: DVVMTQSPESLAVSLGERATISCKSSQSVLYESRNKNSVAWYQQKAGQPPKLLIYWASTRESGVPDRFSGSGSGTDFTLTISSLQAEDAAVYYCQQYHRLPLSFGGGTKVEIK

Each variant is given by its three light chain CDRs, as the data file delimits them; those of the parent are KSSQSVLYESRNKNSVA, WASTRES, QQYHRLPLS.
Variants here have at most six changes.
Affinities are written as log10 Kd with Kd in nM; a lower number is a better binder.
The mean shown is taken over the replicates in which the pair was detected.
"no signal" means that the variant was in the library but no mating with the target was seen in any replicate; the authors take this as a sign of poor binding, and no number exists.

CDR-L1	CDR-L2	CDR-L3	group	mean, log10 nM	replicates with signal
KSLQSVLYESRNKNSVA	HASTRED	QLYHRLPLS	Rand	1.76	6/6
KSSQEVLYESRNKNSVA	WASTRES	QQVCRLPLS	Ctrl	2.11	5/6
KVPQSMLYESRNKNSVA	NASQRES	QQYHRLPLS	GP_Gen	-0.29	6/6
KKSQSVLYESRNKNSVA	QASTRES	QQYHHLPLS	Ctrl	1.51	6/6
KLQQSDLYESRNKNSVA	GASTRLS	QQYHRLPLS	GP_Gen	0.24	6/6
KFSQSVLYESRTKNSVA	NASTRES	QQYHRLPSS	Rand	-0.14	6/6
KSSQSVLYESRNKPSVA	EASTRES	QQYHRLPLS	Ctrl	0.57	6/6
SFSQSVLYESRTKNSVA	NASTRES	QQYHRLPLS	GP_HC	0.24	6/6
KSSQSVLYENRNKNSVA	WASTRES	EQYHRLPLS	Ctrl	3.42	1/6
KQSQSVLYESRNKNNVA	DASTRES	QQYHRLPLD	GP_HC	0.48	6/6
KLSQSDEYESRNKNSVA	EASTRES	QQYHRLPLS	GP_Gen	-0.45	6/6
KYYPSYLYESRNKNSVA	NASTRES	QQYHRLPLS	GP_HC	-0.16	6/6
KLQQSVLYESRNKNSVA	HASTRCS	QQYHRLPLS	GP_Gen	0.30	6/6
KMPQSYLYESRNKNSVA	NASTRES	QQYHRLPLS	GP_Gen	-0.26	6/6
KLSQSWLMESRNKNSVA	NASTRES	QQYHRLPLS	GP_Gen	-0.42	6/6
KSSQSVLYENRCKYSVA	WASTREA	QQYHRLPLS	Ctrl	1.09	2/6
KSSQSFLYESRNKNSVA	DASTRES	QAYHRLPLS	GP_HC	0.62	6/6
KLSMSHLYESRNKNSVA	EASTRES	QQYHRLPLS	GP_Gen	-0.26	6/6
KSSQSVLYESRNKNSVA	WASERES	QQYHRLPLS	Ctrl	2.10	5/6
KVSQSVLYESGTKNSVA	NASERES	QQYHRLPLS	GP_HC	0.05	6/6
KLSQSVLYESRNSNSVA	EASTRES	QQYHRLPLS	GP_Gen	-0.25	6/6
KLQQSQLYESRNKNSVA	EASTRES	QQYHRLPLS	GP_Gen	0.10	6/6
SFSQSVLYESRNKNSVA	NASTRES	QQYHRLPLS	GP_HC	-0.11	6/6
KSSQSVLDEWNNKNSVA	WASTRES	QQYHRLPLS	Ctrl	1.58	6/6
KSLQSVLYESRNFNSVA	EASTRED	QQYHRLPLS	GP_HC	0.60	6/6
KQSQQVLFESRNKNSVA	DASTRES	QQYHRLPLS	GP_HC	-0.35	6/6
KQSQSVLVESVNKNSVA	DASTRES	QQYHRLPLS	GP_HC	0.41	6/6
KSYSSVLYENRIKNSVA	WASTRES	QQYHRLPLS	Ctrl	4.40	1/6
KQSQSVLYESRNKNSVA	DASTRES	SQYHRLHLS	Rand	0.36	6/6
YLSQSVLYESRNKNSVA	NASTRLS	QQYHRLPLS	GP_Gen	-0.28	6/6
KSSQSVLYQARNKNSVA	WASTRES	QQYKRLPLS	Ctrl	no signal	0/6
KSSQSVLYESRNKNSVA	WASTRES	QQYHRLPLV	Ctrl	2.21	2/6
KLSGSTLYDSQNKNSVA	WASTRES	QQYKRLPLS	GP_HC	-0.09	6/6
HSSPSVPYESRNKNSVA	NASTRES	QQYHRLPLS	GP_HC	-0.16	6/6
KSSQSVLYDSRNKNSVA	HASTRES	QQYHRLPLS	Ctrl	1.37	6/6
KSSQSVLYESRNKNSVA	DASTRES	QQYHRLPPS	Ctrl	no signal	0/6
KVSQSELYESRNKNSVA	NASTRCS	QQYHRLPLS	GP_Gen	-0.14	6/6
KLSQSVLYESRNKNQVA	GASTRES	QQYHRLPLS	GP_Gen	-0.25	6/6
KSSQSVLYQSSNKNSVA	WASTRES	QQYMRLPLS	Ctrl	0.83	3/6
KSSQSTQYESHNKNSVA	WASTRTP	QQYHRLPLS	Ctrl	2.25	5/6
ALSQSELYESRMKNSVA	NASTREE	QQYHRLPLS	GP_Gibbs	0.08	6/6
ILSQSVLYESRNKNSVA	NASTREQ	QQYHRLPLS	GP_Gen	0.26	6/6
KLSQSWLYESRNKNSVA	NASTRET	QQYHRLPLS	GP_Gen	-0.20	6/6
KLSQSVLYESRNPNNVA	EASTRES	QQYHRLPLS	GP_Gen	0.03	6/6
KLGQGVLDESRNKNSVA	RASTRES	QQYHRLPLS	GP_HC	0.79	6/6
KLSQSVLYESRNSNNVA	HASTRES	QQYHRLPLS	GP_Gen	-0.46	6/6
KVEQSWLYESRNKNAVA	NASQRES	QQYHRLPLS	GP_Gen	-0.25	6/6
KVSQSVPYEDRNKNSVA	NASTRES	QQYHRLPLS	GP_Gen	0.27	6/6
KSSWSVLYESRNKNSVA	WASSRCS	QQYHRLPLY	Ctrl	no signal	0/6
KSSQSVLEESRNKHSVA	WASTRES	QQYHRFPLS	Ctrl	2.28	5/6
KSSQSVLYEDRNANSVA	EASFRES	QQYHRFPWS	Ctrl	1.55	4/6
KSSQSVLYEDRNKNSVA	NASQRES	QQYHRLPLS	GP_Gen	0.21	6/6
KLSQSFLYESRNFNSVA	GASTRES	QQYHRLPLS	GP_HC	-0.07	6/6
HLSWVDLYESRNKNSVA	NASTRES	QQYHRLPLS	GP_HC	-0.13	6/6
KSSQSVLYESRNKNSLA	YASTRES	QQYHRLPLS	Ctrl	1.14	1/6
KLSQSVLYESRQKNSVA	NASYRES	QQYHRLPLS	GP_Gen	0.14	6/6
KVSQSVLYQSRNKNSVA	HASTRES	QQYHRLPLS	GP_Gen	-0.17	6/6
KLSQSWLYESRNKNNVA	NASQRES	QQYHRLPLS	GP_Gen	-0.30	6/6
KISQSELYESRNKNSVA	EASTRES	QQYHRLPLS	GP_Gen	-0.21	6/6
KSSISQLYESGNKNSVA	NASTRES	QQYHRLPLS	GP_HC	-0.26	6/6
KHSQSVLGEQRNKNSVA	DISTRES	QQYHRLPLS	GP_HC	0.67	6/6
KISQSVLYESRNKNSVA	GASTRES	QQYHRLPNS	Ctrl	2.52	6/6
KYSFSDLNESRNKNSVA	EASTREQ	QQYHRLPLS	GP_Gibbs	0.06	6/6
KSSQSVLYESENKNSVA	EASTREM	QQYHRWPLS	Ctrl	2.17	5/6

Extract of 3 entries:

| CDR-L1 | CDR-L2 | CDR-L3 | group | mean, log10 nM | replicates with signal |
|---|---|---|---|---|---|
| KLSQSWLYESRNKNNVA | NASQRES | QQYHRLPLS | GP_Gen | -0.30 | 6/6 |
| KLQQSDLYESRNKNSVA | GASTRLS | QQYHRLPLS | GP_Gen | 0.24 | 6/6 |
| KSSQSVLYEDRNANSVA | EASFRES | QQYHRFPWS | Ctrl | 1.55 | 4/6 |

In the paper, a design with two or fewer of six values counts as a poor binder.
Of ten entries with the parent sequence, four were seen in most replicates (averages 0.34 to 2.37), three in one and three in none, so single entries are noisy.
A sequence measured in both rounds can read differently, since the two assays cover different ranges.
Background: pairings of all light chain designs with three empty control strains gave a value in 4% of cases (median 2.64, 5th percentile 1.59). Values in that range, when seen in few replicates, are hard to tell from nonspecific mating.

From the AlphaSeq antibody data of Li et al. 2023 (doi:10.1038/s41467-023-39022-2), copy in the FLAb collection.